Measurements: patent US20240009269A1 (priority 2020, published 2024)

Test system: tissue-engineered dhBMECs microvessels
Assay: BBB opening in tissue-engineered BBB microvessels (500 kDa dextran leakage)
Type: cell-based, human
Conditions: retrospective analysis
Experimental: Three-dimensional blood-brain barrier microvessels were fabricated as previously reported (FIGS. 10A and 10B) [Linville, R. M., et al., Biomaterials, 2019. 190-191: p. 24-37] 150 μm diameter and 1 cm long channels were patterned in 7 mg mL^−1 type I collagen (Corning) using nitinol wire (Malin Co.) housed within polydimethylsiloxane (PDMS; Dow Corning). Channels were cross-linked by incubation in 20 mM genipin (Wako Biosciences) for 2 hours to increase cell adhesion. 2dhBMECs were suspended in BBB induction medium at a concentration of 5×10^6 cells mL^−1 and seeded into channels. Microvessels were perfused using BBB induction medium for 24 hours and then switched to BBB maintenance medium. […]
Live-cell imaging was conducted to study dynamic changes in in vitro BBB permeability and microvessel structure. […] Phase contrast and fluorescence images were acquired every two minutes with the focal plane set to the microvessel midplane. […]
Image processing was performed using ImageJ (NIH) to quantify BBB opening (FIGS. 11A-11D). […] The permeability (cm s^−1) was calculated using P=(r/2)(1/ΔI)(dI/dt), where r is the vessel radius, ΔI is the increase in fluorescence intensity upon perfusion of the fluorophore, and (dI/dt) is the rate of increase in fluorescence intensity as solute exits into the gel. […]

OC[C@@H](O)[C@@H](O)[C@H](O)[C@H](O)CO [mannitol, reference compound]
threshold dose to induce opening: 7 M·min
